Patent US7223725 (AMYLIN PHARMACEUTICALS, dated 2007)

Molecular target: GLP-1 receptor (on RINm5f membranes) (UniProt P32301)
Assay: displacement of [125I]GLP-1 or [125I]exendin(9-39) from RINm5f membranes, filtration

Substance: Exendin-4 (peptide)
- IC50: 0.7 nM
